A word on the IC50: it is the concentration that inhibits the measured activity by half. A low value points to greater potency in that assay. What is called GI50 is the concentration giving 50% growth inhibition. As usually defined, the solubility (kinetic) is the concentration staying in solution when a stock, usually in DMSO, is diluted into the medium.

By UniProt entry, the sequences of proteins in these tests, tags left out. Where a name states a change or a piece, a line headed by the entry shows the natural chain unless it says otherwise. Residues count along the entry.
UniProt P07949, 29-1114 limits assumed: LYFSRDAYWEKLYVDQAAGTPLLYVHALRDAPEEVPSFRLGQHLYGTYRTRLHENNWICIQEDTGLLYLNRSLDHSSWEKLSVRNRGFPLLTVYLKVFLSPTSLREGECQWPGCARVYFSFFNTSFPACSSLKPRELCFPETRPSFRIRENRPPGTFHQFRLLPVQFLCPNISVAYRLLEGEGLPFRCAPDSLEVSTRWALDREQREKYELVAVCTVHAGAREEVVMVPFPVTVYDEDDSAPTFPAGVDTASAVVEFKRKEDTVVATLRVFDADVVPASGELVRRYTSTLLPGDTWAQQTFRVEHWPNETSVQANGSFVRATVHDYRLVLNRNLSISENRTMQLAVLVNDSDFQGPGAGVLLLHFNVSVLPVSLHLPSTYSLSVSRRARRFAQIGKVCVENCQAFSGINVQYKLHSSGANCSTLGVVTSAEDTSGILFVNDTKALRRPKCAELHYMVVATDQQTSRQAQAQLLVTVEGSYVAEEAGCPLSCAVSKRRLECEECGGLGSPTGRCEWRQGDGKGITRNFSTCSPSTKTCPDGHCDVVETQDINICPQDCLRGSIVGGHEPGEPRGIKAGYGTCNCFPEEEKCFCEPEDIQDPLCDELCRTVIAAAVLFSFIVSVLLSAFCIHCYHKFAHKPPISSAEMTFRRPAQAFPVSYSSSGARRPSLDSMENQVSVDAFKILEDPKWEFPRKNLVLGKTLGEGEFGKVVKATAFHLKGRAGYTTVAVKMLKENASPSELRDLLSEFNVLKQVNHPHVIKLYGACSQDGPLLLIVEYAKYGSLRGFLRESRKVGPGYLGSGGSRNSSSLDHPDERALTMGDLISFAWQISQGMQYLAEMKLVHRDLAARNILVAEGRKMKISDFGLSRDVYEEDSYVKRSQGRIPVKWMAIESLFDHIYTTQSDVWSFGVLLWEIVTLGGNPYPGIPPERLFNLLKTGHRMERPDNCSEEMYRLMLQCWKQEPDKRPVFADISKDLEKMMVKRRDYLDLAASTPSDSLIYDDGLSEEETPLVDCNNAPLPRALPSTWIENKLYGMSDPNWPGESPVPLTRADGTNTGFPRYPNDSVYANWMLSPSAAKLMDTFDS
UniProt Q16620, 32-822 limits assumed: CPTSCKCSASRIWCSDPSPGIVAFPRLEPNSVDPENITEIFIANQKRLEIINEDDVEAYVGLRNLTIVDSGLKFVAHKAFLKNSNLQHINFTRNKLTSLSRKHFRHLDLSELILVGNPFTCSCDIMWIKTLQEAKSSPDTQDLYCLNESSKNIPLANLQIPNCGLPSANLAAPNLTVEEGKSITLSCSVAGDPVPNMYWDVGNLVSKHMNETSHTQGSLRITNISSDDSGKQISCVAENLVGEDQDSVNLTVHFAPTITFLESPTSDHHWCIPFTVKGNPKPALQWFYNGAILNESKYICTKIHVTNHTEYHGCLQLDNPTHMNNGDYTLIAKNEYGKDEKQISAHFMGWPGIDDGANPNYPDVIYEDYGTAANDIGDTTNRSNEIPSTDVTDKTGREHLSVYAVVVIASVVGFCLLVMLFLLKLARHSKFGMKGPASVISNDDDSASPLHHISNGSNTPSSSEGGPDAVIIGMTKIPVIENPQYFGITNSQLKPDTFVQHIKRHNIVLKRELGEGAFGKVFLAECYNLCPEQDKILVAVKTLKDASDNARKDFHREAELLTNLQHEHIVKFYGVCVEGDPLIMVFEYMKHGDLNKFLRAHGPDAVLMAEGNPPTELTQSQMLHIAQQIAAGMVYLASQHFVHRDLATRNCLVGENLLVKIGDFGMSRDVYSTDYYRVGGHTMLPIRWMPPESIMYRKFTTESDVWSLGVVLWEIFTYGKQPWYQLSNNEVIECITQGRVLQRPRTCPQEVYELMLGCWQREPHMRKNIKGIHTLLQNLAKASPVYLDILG
UniProt Q16288, 32-839 limits assumed: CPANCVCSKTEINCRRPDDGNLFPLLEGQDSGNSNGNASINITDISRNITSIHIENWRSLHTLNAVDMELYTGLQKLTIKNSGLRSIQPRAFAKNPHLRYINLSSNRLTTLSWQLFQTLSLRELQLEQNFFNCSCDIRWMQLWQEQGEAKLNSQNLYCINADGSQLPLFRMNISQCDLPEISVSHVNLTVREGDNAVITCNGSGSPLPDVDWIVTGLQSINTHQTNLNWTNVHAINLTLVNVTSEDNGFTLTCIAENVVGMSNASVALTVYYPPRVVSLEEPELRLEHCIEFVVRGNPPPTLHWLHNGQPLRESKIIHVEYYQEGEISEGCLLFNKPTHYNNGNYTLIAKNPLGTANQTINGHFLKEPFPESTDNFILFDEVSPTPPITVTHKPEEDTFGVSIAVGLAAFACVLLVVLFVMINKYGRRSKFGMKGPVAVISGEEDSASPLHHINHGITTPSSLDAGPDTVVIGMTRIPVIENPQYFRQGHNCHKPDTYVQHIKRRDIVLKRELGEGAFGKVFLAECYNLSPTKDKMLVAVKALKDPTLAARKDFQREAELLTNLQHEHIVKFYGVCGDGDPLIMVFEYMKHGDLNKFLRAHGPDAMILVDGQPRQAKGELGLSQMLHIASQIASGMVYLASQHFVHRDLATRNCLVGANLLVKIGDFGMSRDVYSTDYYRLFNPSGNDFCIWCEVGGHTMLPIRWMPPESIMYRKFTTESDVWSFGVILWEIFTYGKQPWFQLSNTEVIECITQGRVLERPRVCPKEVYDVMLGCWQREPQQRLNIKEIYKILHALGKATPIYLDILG
UniProt P17948, 27-1338 limits assumed: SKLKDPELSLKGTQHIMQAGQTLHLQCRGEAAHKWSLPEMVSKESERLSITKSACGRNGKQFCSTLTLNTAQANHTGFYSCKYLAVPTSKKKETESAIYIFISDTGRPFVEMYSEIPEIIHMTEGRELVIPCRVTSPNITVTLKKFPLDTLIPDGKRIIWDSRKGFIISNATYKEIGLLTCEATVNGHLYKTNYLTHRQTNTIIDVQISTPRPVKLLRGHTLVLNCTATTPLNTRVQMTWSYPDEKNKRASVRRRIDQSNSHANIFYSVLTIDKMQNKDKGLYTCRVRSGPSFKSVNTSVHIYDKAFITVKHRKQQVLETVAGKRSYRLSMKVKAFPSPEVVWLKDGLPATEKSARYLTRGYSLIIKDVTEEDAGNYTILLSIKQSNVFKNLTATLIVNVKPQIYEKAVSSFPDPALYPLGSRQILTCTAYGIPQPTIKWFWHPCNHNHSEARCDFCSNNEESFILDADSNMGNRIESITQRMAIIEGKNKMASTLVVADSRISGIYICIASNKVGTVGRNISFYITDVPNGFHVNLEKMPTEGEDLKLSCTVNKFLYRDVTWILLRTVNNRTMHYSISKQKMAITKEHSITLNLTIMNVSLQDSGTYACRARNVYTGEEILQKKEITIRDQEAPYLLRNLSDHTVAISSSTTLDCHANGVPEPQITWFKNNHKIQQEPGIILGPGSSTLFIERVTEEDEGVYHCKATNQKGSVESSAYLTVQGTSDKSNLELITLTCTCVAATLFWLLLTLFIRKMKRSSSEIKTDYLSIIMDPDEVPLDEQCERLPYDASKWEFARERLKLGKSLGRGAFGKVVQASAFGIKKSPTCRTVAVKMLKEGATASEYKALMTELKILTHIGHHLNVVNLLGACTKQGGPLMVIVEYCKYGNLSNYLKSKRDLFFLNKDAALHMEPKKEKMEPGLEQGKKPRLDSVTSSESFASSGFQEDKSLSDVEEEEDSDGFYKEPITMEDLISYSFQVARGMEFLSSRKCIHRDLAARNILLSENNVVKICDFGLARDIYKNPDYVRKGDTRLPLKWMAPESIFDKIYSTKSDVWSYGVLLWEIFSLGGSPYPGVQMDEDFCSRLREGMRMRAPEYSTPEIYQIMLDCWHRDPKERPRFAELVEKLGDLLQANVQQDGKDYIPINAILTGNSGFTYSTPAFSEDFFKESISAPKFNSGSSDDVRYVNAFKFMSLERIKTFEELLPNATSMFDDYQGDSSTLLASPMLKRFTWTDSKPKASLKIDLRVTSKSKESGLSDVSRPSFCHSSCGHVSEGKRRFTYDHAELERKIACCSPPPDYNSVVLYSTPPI
UniProt Q04771, 21-509 limits assumed: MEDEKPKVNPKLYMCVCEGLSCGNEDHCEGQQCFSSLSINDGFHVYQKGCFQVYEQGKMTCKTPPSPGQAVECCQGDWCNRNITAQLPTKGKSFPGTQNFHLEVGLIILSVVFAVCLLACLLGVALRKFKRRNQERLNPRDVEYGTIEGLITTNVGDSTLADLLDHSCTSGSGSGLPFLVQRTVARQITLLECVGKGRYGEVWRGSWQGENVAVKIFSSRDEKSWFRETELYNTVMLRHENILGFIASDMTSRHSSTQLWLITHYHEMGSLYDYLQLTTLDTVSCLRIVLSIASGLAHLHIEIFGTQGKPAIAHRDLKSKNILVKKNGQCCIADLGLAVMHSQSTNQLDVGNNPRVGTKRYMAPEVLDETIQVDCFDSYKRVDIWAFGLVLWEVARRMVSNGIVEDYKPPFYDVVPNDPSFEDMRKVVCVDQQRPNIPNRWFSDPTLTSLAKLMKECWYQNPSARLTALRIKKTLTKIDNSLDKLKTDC
UniProt P36896, 24-505 limits assumed: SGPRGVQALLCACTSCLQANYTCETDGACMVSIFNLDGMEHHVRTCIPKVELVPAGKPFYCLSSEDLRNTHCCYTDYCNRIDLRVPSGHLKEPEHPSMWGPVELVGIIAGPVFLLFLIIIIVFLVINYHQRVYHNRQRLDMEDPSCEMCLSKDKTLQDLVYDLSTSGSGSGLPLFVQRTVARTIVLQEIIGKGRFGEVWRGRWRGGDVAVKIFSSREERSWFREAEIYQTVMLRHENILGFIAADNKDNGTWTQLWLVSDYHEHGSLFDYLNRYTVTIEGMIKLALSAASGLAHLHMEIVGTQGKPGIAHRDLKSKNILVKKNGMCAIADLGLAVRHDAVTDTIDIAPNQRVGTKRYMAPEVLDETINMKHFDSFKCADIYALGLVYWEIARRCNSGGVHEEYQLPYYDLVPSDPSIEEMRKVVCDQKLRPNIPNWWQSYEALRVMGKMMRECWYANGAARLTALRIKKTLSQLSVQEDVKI
UniProt P27037, 20-513 limits assumed: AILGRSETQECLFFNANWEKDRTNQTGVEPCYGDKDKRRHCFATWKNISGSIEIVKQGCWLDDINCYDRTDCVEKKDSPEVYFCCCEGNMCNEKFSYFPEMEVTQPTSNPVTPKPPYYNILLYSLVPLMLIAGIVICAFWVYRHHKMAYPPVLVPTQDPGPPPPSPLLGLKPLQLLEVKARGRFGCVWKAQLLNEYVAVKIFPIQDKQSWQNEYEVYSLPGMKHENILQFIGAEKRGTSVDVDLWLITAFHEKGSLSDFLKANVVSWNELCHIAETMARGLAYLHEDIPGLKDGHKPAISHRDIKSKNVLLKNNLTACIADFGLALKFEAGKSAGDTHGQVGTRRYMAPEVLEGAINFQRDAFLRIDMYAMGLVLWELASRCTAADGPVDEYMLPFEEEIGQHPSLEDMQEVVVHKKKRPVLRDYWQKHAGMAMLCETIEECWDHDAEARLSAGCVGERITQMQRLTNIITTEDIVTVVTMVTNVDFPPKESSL
UniProt P36897, 34-503 limits assumed: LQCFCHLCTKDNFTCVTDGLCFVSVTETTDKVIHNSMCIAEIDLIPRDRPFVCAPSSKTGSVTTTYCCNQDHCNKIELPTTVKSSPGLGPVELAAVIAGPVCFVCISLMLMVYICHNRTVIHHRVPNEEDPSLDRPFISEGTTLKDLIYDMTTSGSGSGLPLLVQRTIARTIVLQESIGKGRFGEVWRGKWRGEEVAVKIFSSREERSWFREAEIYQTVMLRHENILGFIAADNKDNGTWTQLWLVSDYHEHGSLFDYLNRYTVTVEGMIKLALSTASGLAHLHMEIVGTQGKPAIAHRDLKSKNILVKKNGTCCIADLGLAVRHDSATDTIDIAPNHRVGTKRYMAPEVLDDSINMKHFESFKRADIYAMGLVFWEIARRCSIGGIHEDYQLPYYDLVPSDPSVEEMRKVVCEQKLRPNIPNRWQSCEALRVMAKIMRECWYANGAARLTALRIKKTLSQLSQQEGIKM

In one data set the target is ABL1 wt (Homo sapiens (Human), UniProt P00519). The experiment in a line: biochemical.
For the next data set, the target named is ABL1 G250E (Homo sapiens, UniProt P00519, G250E). It is filed as biochemical.
The next data set concerns the target ABL1 Q252H (Homo sapiens, UniProt P00519, Q252H). It is filed as biochemical.
For a further data set, the target named is ABL1 Y253F (Homo sapiens, UniProt P00519, Y253F). The class given is biochemical.
The next data set deals with ABL1 E255K (Homo sapiens, UniProt P00519, E255K). The class given is biochemical.
For the next data set, the target named is ABL1 T315I (Homo sapiens, UniProt P00519, T315I). It is filed as biochemical.
Another data set addresses ABL1 F317I (Homo sapiens, UniProt P00519, F317I). The class given is biochemical.
In another data set the target is ABL1 M351T (Homo sapiens, UniProt P00519, M351T). The class given is biochemical.
Another data set has as its target ABL1 H396P (Homo sapiens, UniProt P00519, H396P). The class given is biochemical.
The next data set concerns the target SRC (GST-HIS-tag) (Homo sapiens (Human), UniProt P12931). The data set is described as follows: biochemical.
The target of data set [1] is T1, MAP3K11 (Homo sapiens (Human), UniProt Q16584).
The target in data set [2] is T2, RET (Homo sapiens (Human), UniProt P07949).
In data set [3] the target is T3, MST4 (Homo sapiens (Human), UniProt Q9P289).
The test system of another data set is WSU-NHL cell line. The experiment in a line: cells. The settings on record: Homo sapiens, 96 h.
The next data set deals with DOHH-2 cell line. The data set is described as follows: cells. The settings on record: Homo sapiens, DOHH-2, 96 h.
Data set [4] addresses T1, MAP3K11. The data set is described as follows: biochemical. The settings on record: read-out: Residual activity (%) at 1 μM, MAP3K11.
The target in the next data set is p38-beta (Homo sapiens (Human), UniProt Q15759). The experiment in a line: biochemical. Conditions: read-out: Residual activity (%) at 1 μM.
In data set [5] the target is T2, RET. The experiment in a line: biochemical. Conditions: read-out: Residual activity (%) at 1 μM, RET.
Another data set has as its target Aurora A (Homo sapiens (Human), UniProt O14965). The experiment in a line: biochemical. The settings on record: read-out: Residual activity (%) at 1 μM.
A further data set addresses Aurora B (Homo sapiens (Human), UniProt Q96GD4). The experiment in a line: biochemical. Conditions: read-out: Residual activity (%) at 1 μM.
For another data set, the target named is MAP3K9 (Homo sapiens (Human), UniProt P80192). The data set is described as follows: biochemical. Conditions: read-out: Residual activity (%) at 1 μM.
The next data set concerns the target MAP3K10 (Homo sapiens (Human), UniProt Q02779). The data set is described as follows: biochemical. Conditions: read-out: Residual activity (%) at 1 μM.
Data set [6] addresses T3, MST4. The experiment in a line: biochemical. The settings on record: read-out: Residual activity (%) at 1 μM.
The next data set deals with MYLK2 (Homo sapiens (Human), UniProt Q9H1R3). The data set is described as follows: biochemical. The settings on record: read-out: Residual activity (%) at 1 μM.
The next data set deals with RPS6KA6 (Homo sapiens (Human), UniProt Q9UK32). The experiment in a line: biochemical. The settings on record: read-out: Residual activity (%) at 1 μM.
The target of another data set is TBK1 (Homo sapiens (Human), UniProt Q9UHD2). The experiment in a line: biochemical. The settings on record: read-out: Residual activity (%) at 1 μM.
The next data set deals with TRKA (Homo sapiens (Human), UniProt P04629). The experiment in a line: biochemical. The settings on record: read-out: Residual activity (%) at 1 μM.
A further data set deals with TRKB (Homo sapiens (Human), UniProt Q16620). The experiment in a line: biochemical. The settings on record: read-out: Residual activity (%) at 1 μM.
A further data set addresses TRKC (Homo sapiens (Human), UniProt Q16288). The data set is described as follows: biochemical. The settings on record: read-out: Residual activity (%) at 1 μM.
The target of a further data set is VEGF-R1 (Homo sapiens (Human), UniProt P17948). The experiment in a line: biochemical. Conditions: read-out: Residual activity (%) at 1 μM.
A further data set concerns the target WEE1 (Homo sapiens (Human), UniProt P30291). The experiment in a line: biochemical. The settings on record: read-out: Residual activity (%) at 1 μM.
The target in the next data set is ACV-R1 (Homo sapiens (Human), UniProt Q04771). The experiment in a line: biochemical. The settings on record: read-out: Residual activity (%) at 1 μM.
A further data set deals with ACV-R1B (Homo sapiens (Human), UniProt P36896). The experiment in a line: biochemical. Conditions: read-out: Residual activity (%) at 1 μM.
For a further data set, the target named is ACV-R2A (Homo sapiens (Human), UniProt P27037). The experiment in a line: biochemical. The settings on record: read-out: Residual activity (%) at 1 μM.
The target of the next data set is BRAF (Homo sapiens (Human), UniProt P15056). The data set is described as follows: biochemical. The settings on record: read-out: Residual activity (%) at 1 μM, BRAF.
Another data set deals with p38-alpha (Homo sapiens (Human), UniProt Q16539). The experiment in a line: biochemical. The settings on record: read-out: Residual activity (%) at 1 μM.
Data set [7] has as its target T4, TGFB-R1 (Homo sapiens (Human), UniProt P36897). The experiment in a line: biochemical. The settings on record: read-out: Residual activity (%) at 1 μM.
For data set [8], the target named is T4, TGFB-R1. The data set is described as follows: biochemical.
Another data set in a line: physchem. The settings on record: kinetic from dmso stock.

Structures are written as SMILES. In brackets after ≈: the same amount, converted by molar mass.

On to `Cc1nc(Nc2ncc(C(=O)Nc3c(Br)ccnc3C)s2)cc(N2CCN(CCO)CC2)n1` [Compound C3, N-(4-bromo-2-methylpyridin-3-yl)-2-((6-(4-(2-hydroxyethyl)piperazin-1-yl)-2-methylpyrimidin-4-yl)amino)thiazole-5-carboxarmide], for which the 50% inhibitory concentration (IC50) at ABL1 wt was 18.3 nM; on ABL1 G250E it was 101 nM; against ABL1 Q252H, 29.7 nM; on ABL1 Y253F it was 16.1 nM; at ABL1 E255K, 111 nM; against ABL1 T315I, 43800 nM. Further, the IC50 against ABL1 F317I was found to be 823 nM; against ABL1 M351T, 37 nM; against ABL1 H396P it was 32.5 nM.

`Cc1nc(Nc2ncc(C(=O)Nc3c(C)cncc3Cl)s2)cc(N2CCN(CCO)CC2)n1` [Compound C4, N-(3-chloro-5-methylpyridin-4-yl)-2-((6-(4-(2-hydroxyethyl)piperazin-1-yl)-2-methylpyrimidin-4-yl)amino)thiazole-5-carboxamide]: the IC50 is 9.2 nM on ABL1 wt; 45.6 nM against ABL1 G250E; 15.2 nM against ABL1 Q252H; 11 nM on ABL1 Y253F; 51.6 nM against ABL1 E255K; 23400 nM on ABL1 T315I. Further, the concentration for half-maximal inhibition (IC50) at ABL1 F317I turned out to be 189 nM; at ABL1 M351T it was 19.4 nM; at ABL1 H396P, 13.2 nM.

For `Cc1nc(Nc2ncc(C(=O)Nc3c(C)csc3Cl)s2)cc(N2CCN(CCO)CC2)n1` [Compound C7, N-(2-chloro-4-methylthiophen-3-yl)-2-((6-(4-(2-hydroxyethyl)piperazin-1-yl)-2-methylpyrimidin-4-yl)amino)thiazole-5-carboxamide], the 50% inhibitory concentration (IC50) is about 1.5 nM against SRC (GST-HIS-tag) and about 490 nM at TGFB-R1 [8]. Moreover, the “Residual activity (%) at 1 μM” value is listed as 16% on MAP3K11 [1], 23% on RET [2] and 41% at MST4 [3]. Also, the values for the GI50 in the data set on WSU-NHL cell line and in the data set with DOHH-2 cell line were about 8 nM and about 9 nM, respectively. In addition, the remaining activity at 1 µM is 16% on MAP3K11 [4]; 13% at p38-beta; 23% at RET [5]; 37% on Aurora A; 49% at Aurora B; 43% at MAP3K9. Besides, the remaining activity at 1 µM at MAP3K10 stood at 41%; on MST4 [6], 41%; on MYLK2, 51%; on RPS6KA6 it was 49%; on TBK1 it was 49%; at TRKA, 29%. The remaining activity at 1 µM on TRKB is 52%; on TRKC, 29%; on VEGF-R1 it was 50%; on WEE1 it was 33%; on ACV-R1, 12%; on ACV-R1B, 1 to 2%. Also, the remaining activity at 1 µM lay in the range of 2 to 3% at ACV-R2A, 8 to 9% on BRAF, 3 to 4% at p38-alpha and 1 to 2% on TGFB-R1 [7].

At SRC (GST-HIS-tag), `Cc1nc(Nc2ncc(C(=O)N[C@H]3CN4CCC3CC4)s2)cc(N2CCN(CCO)CC2)n1` [Compound C12, (R)-2-((6-(4-(2-hydroxyethyl)piperazin-1-yl)-2-methylpyrimidin-4-yl)amino)-N-(quinuclidine-3-yl)thiazole-5-carboxamide] came in with an IC50 of under 100 nM. In addition, in the data set “physchem”, the solubility (kinetic) turned out to be 195 µM (≈ 92.2 µg/mL).
